# In patent US11414443B2, “Phospholipid derivatives and their use as medicaments” (USTAV MOLEKULARNI GENETIKY AV CR, V.V.I., priority 2017, dated 2022):
# Tested on: tumor cell cultures C32, TIB-75, LMH
# Test: Cell state and growth in tumor cell cultures, controls and comparison products
# Details: 0-240 μM, 16 hours of culture
# Description: As a control, the starting phospholipids were used at the same concentrations and conditions.
# The cytotoxic activity of the products was tested in tumor cell cultures C32 (human melanoma), TIB-75 (inducing murine hepatocarcinoma), LMH (chicken hepatocarcinoma).
# A) C32 cells were cultured in D-MEM medium containing 10% fetal serum and penicillin+streptomycin at 37° C. in air/5% CO2 atmosphere saturated with water vapor. Each well contained 5×10^4 cells and 0.5 ml medium. The tested products were added to the cells at concentrations of 0, 2.5, 5, 10, 20, 40, 80, 160 and 240 μM. After 16 hours of culture, cell state was recorded.
# B) LMH cells were cultured in D-MEM medium containing 10% fetal serum and penicillin+streptomycin at 37° C. in air/5% CO2 atmosphere saturated with water vapor. Each well contained 5×10^4 cells and 0.5 ml medium. The tested phospholipids were added to the cells at concentrations of 0, 2.5, 5, 10, 20, 40, 80, 160 and 240 μM. After 16 hours of culture, cell state was recorded.
# C) TIB-75 cells were cultured in D-MEM medium containing 10% fetal serum and penicillin+streptomycin at 37° C. in air/5% CO2 atmosphere saturated with water vapor. Each well contained 5×10^4 cells and 0.5 ml medium. The tested phospholipids were added to the cells at concentrations of 0, 2.5, 5, 10, 20, 40, 80, 160 and 240 μM. After 16 hours of culture, cell state was recorded.
substance,measurement,value
N-palmitoyl-phosphatidylethanolamine [N-palmitoyl PE],cytotoxic activity: effect on phenotype and rate of cell growth,did not affect the phenotype or reduce the rate of cell growth
